Common to all, as to assay type: cell-based
Data set [1] relates to Purpureocillium lilacinum spores. The experiment in a line: Spore viability (germination rate) of Purpureocillium lilacinum spores dispersed in fluid and stored at 30° C. The method, then: (§1) 3 g of Purpureocillium lilacinum pure spore powder were transferred into a formulation vessel (IKA Type DT-20 mixing vessel with dispersion tool for Ultra Turrax) using a sterile spoon. 12 mL of fluid were added into the respective formulation vessel and dispersed using ultra turrax tube drive control for 1 min at 3000 rpm; change direction after 30 sec. After this 2.8 mL were transferred in four sample bottles (Wheaton Serum vial, Type I) leaving little headspace and closed tight using crimpneck caps (Macherey—Nagel type N 13). Afterwards all sample bottles were transferred to an incubator set at 30° C. and stored for a given time.
In regular intervals a sample was retrieved from the storage location and analyzed for spore viability. For this purpose, the original samples were thoroughly homogenized. Aliquots of 0.25 g or 250 μL of each sample were transferred into 50 mL falcon tubes. The tubes were filled up to 25 g using a sterile aqueous solution containing 2% Tween 80 and homogenized by vortexing to achieve the first dilution step (1:100 dilution). This dilution was used for further dilution and spotting on agar.
(§2) Not all samples mixed well or mixed at all in 2% Tween 80. For these samples, an alternative dispersion/dilution method was applied where the oil phase was stripped from the spores first: 0.25 g or 250 μL of sample are weighted into a 2 mL Eppendorf tube, and 0.5 mL of 2% Tween 80 is added, and the mixture is transferred into an Eppendorf centrifuge where it is centrifuged for 1 min at 10.000 rpm. The supernatant (=upper oily phase) is discarded by using a pipette. Afterwards 250 μL of Breakthru S 240 were added and the spores were well dispersed. 250 μL or 0.25 g of each sample were transferred into a sterile 50 mL Falcon tube. […]
For evaluation of spore germination rate prepare a 1:30000 dilution based on the 1:100 dilution achieved by multiple automated dilution (pipetting robot, 96 well plate). […] At least 200 spores per sample need to be evaluated. […]

Data set [2] relates to Beauveria bassiana spores. The experiment in a line: Spore viability (germination rate) of Beauveria bassiana spores dispersed in fluid and stored at 30° C. On the procedure:
as §1, with “1.5 g” for “3 g”, “of Beauveria bassiana” for “of Purpureocillium lilacinum”, “spoon. 13.5” for “spoon. 12”, “N 13)” for “N 13).”
(§3) In regular intervals a sample was retrieved from the storage location and analyzed for spore viability. Therefore the original samples were thoroughly homogenized. Aliquots of 0.25 g or 250 μL of each sample are transferred into 50 mL falcon tubes. The tubes were filled up to 25 g using a sterile aqueous solution containing 2% Tween 80 and homogenized by vortexing to achieve the first dilution step (1:100 dilution). This dilution was used for further dilution and spotting on agar.
Not all samples mixed well or mixed at all in 2% Tween 80. […]
(§4) For evaluation of spore germination rate prepare a 1:15000 dilution based on the 1:100 dilution achieved by multiple automated dilution (pipetting robot, 96 well plate). […] At least 200 spores per sample need to be evaluated. […]

The test system of data set [3] is Penicillium bilaii spores. The experiment in a line: Spore viability (germination rate) of Penicillium bilaii spores dispersed in fluid and stored at 30° C. On the procedure: as §1, with “1.5 g” for “3 g”, “of Penicillium bilaii” for “of Purpureocillium lilacinum”, “spoon. 13.5” for “spoon. 12”, “N 13)” for “N 13).”
as §3
as §2, with “phase is” for “phase was”, “240 are” for “240 were”, “spores are” for “spores were”, “sample are” for “sample were”
as §4

Turning to “Neopentylglycol dicocoate [Radialube 7302]”, in data set [1], the “spore viability [%] after 3 m (87-92 d)” value was determined as 83.1%, the “spore viability [%] after 5-6 w (35-40 d)” value was found to be 94.7% and the “spore viability [%] at day 1” value is listed as 99.1%. Further, in data set [2], the “spore viability [%] after 2 w (14 d)” value is recorded as 68.4% and the “spore viability [%] at day 1” value came to 84.2%. Also, in data set [3], the “spore viability [%] 3 m@30° C. (83-85 d)” value came to 70.2%, the “spore viability [%] 6 w@30° C. (41-43 d)” value was found to be 86.1% and the “spore viability [%] initial (1-2 d)” value turned out to be 94.5%.
